Only a part is listed here, and it is no random draw. The source made the active and inactive calls. No stated cut-off is given here; in the data, active means activation mostly above about 9.5% (no sharp cut-off); inactive means mostly below about 7.6%.
Target: 5-hydroxytryptamine receptor 5A (Homo sapiens) (UniProt P47898)
Assay: HTR5A agonists in luminescence cell assay, primary screen, counter-screen for OPRM1-OPRD1 heterodimer agonist project, full-deck HTS (AID 504692);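 further: 0% = cells with vehicle only and 100% = reference agonist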
Settings: cell-based, at 9.3 µM, hits give high values

Chains of the proteins cited; added tags and fusions are not shown.
UniProt P47898, whole entry, looked up: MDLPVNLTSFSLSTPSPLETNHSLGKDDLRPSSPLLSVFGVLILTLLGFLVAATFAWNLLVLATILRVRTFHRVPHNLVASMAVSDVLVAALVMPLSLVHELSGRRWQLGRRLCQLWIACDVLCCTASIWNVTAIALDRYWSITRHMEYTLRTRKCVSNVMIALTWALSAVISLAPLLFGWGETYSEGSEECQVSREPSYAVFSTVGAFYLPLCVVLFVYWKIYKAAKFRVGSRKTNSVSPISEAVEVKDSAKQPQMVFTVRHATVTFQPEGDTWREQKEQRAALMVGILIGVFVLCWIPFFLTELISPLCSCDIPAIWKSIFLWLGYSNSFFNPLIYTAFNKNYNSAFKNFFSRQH

| Structure (SMILES) | activation |
| --- | --- |
| OCCNc1nc2ccccc2n1CCN1CCCCC1 | inactive: 4.36% |
| C(=N\c1nc2ccccc2n1CCN1CCOCC1)/c1cccs1 | inactive: -2.46% |
| COCCCNC(=O)Cn1cnc2c(NCc3ccccc3)ncnc21 | inactive: -0.89% |
| CS(=O)(=O)c1ccc(Cl)c(NC(=O)COC(=O)C(O)(c2ccccc2)c2ccccc2)c1 | inactive: -5.67% |
| Cn1c(=O)c2c(ncn2CC(=O)Nc2cccc(S(=O)(=O)Nc3ccccc3F)c2)n(C)c1=O | inactive: -0.54% |
| O=C(OC1CN2CCC1CC2)c1ccc(Cl)cc1 (configuration not stated) | inactive: 0.73% |
| O=C(c1ccccc1)N1CCn2c1nc1ccccc12 | inactive: -3.11% |
| c1ccc(Cn2c(CNc3nc4ccccc4n3CCN3CCCCC3)nc3ccccc32)cc1 | inactive: 3.73% |
| CN1CCN(C(=O)Cn2c(C(F)(F)F)nc3ccccc32)CC1 | inactive: 2.63% |
| Cn1cccc1/C=N/NC(=O)Cn1cnc2ccccc21 | inactive: 3.12% |
| CC(C(=O)N1CCc2ccccc21)n1cnc2c1c(=O)n(C)c(=O)n2C (configuration not stated) | inactive: -0.18% |
| CCC(=O)Nc1ccc(NC(=S)NC(=O)/C=C/c2ccco2)cc1 | inactive: -0.12% |
| C[C@H](NC(=O)N1CCn2c1nc1ccccc12)C(=O)NCC1CCCO1 (some centres not stated) | inactive: -0.69% |
| CN1CCC(N(C)c2nc(-c3ccccc3)nc3ccccc23)CC1 | inactive: -1.67% |
| Cc1ccc(S(=O)(=O)c2nnn3c2nc(NC2CCN(Cc4ccccc4)CC2)c2ccccc23)cc1C | inactive: 3.35% |
| CCN(CC)CCn1cnc2c1c(=O)[nH]c(=O)n2Cc1ccccc1 | inactive: 1.92% |
| CC(C(=O)Nc1ccccc1C(=O)O)n1c(C(F)(F)F)nc2ccccc21 (configuration not stated) | inactive: -1.57% |
| Cn1c(=O)c2ncn(CC(=O)NCCOc3ccccc3)c2n(C)c1=O | inactive: 1% |
| CC(C)(C)NC(=O)Cn1c(-c2nonc2N)nc2ccccc21 | inactive: -2.65% |
| COC(=O)Cn1c(=N)n(CCN2CCCCC2)c2ccccc21 | inactive: -0.28% |
| O=[N+]([O-])c1ccc2c(c1)nc1n2CCN(C2CCCCC2)C1 | inactive: 0.6% |
| CCc1ccc(NC(=O)Cn2c3[n+](c4c(F)c(F)ccc42)CCCCC3)cc1 | inactive: -5.07% |
| Cc1cccc(OCC(=O)OC2CN3CCC2CC3)c1 (configuration not stated) | inactive: -9.18% |
| CCN(CC)CCn1cnc2c1c(=O)n(CCOC(=O)c1cc(OC)c(OC)c(OC)c1)c(=O)n2C | inactive: 2.83% |

| Structure (SMILES) | activation |
| --- | --- |
| O=C(Cn1cnc2ccccc21)Nc1cccc(S(=O)(=O)N2CCCC2)c1 | inactive: 7.57% |
| COc1ccc(CNc2nc3ccccc3n2CCN2CCOCC2)cc1 | inactive: -1.65% |
| O=[As](O)(c1cccc(O)c1)c1cccc(O)c1 | inactive: 1.6% |
| C=CCOC(=O)C1=C(C)N=C2SCCC(=O)N2C1/C=C/c1ccccc1 (configuration not stated) | inactive: -1.08% |
| Cn1c(=O)c2c(ncn2CCN(CCO)Cc2ccccc2)n(C)c1=O | inactive: -5.82% |
| CCOC(=O)CSc1nc2ccccc2n1CC(=O)NC(C)(C)C | inactive: 2.58% |
| N#CCC(=O)N1CCn2c1nc1ccccc12 | inactive: 7.26% |
| O=C(Cn1c(CO)nc2ccccc21)NC1CCCCCC1 | inactive: -0.63% |
| CCN(CC)CCn1c(NCc2cc(OC)ccc2OC)nc2ccccc21 | inactive: -0.85% |
| COC(=O)[C@H](CC(C)C)NC(=O)Cn1cnc2c(OCc3ccccc3)ncnc21 | inactive: -0.79% |
| CCOC(=O)C1=C(C)N=C2SCCC(=O)N2[C@@H]1/C=C/c1ccccc1 | inactive: 6.63% |
| O=C(Cn1c(-c2cncs2)nc2ccccc21)NC1CCCC1 | inactive: -0.45% |
| COc1ccc(-c2csc(NCCn3c(C)nc4cc(C(F)(F)F)ccc43)n2)cc1 | inactive: 9.26% |
| COc1ccccc1CNC(=O)COC(=O)C(O)(c1ccccc1)c1ccccc1 | inactive: 0.31% |
| Cn1c(=O)c2c(nc(N3CCCCC3)n2CCNC2=NCCC2)n(C)c1=O | inactive: -3.63% |
| COc1ccc(N(C(=O)Cn2cnc3ccccc32)C(C(=O)NC2CCCCC2)c2ccccc2)cc1 (configuration not stated) | inactive: 5.27% |
| Cc1ccc2c(c1)C1CN(C)CCC1N2C(=O)c1cccc(S(=O)(=O)N2CC(C)CC(C)C2)c1 (configuration not stated) | inactive: -3.68% |
| O=C(CCNC(=O)N1CCn2c1nc1ccccc12)NCc1ccccc1 | inactive: 0.46% |
| Cc1ccc(NC(=O)C2CC(=O)Nc3nc4ccccc4n32)c(C)c1 (configuration not stated) | inactive: -4.94% |
| COc1ccccc1C(=O)Nc1ccc2c(c1)nc1n2CCN(Cc2ccccc2)C1 | inactive: 2.33% |
| CCN(CC)c1ccc(CNc2nc3ccccc3n2CCN2CCCCC2)cc1 | inactive: -3.91% |
| Cn1c(=O)c2ncn(CC(=O)N/N=C/C=C/c3ccccc3)c2n(C)c1=O | inactive: -0.03% |
| CCN(CC)CCn1c(NCc2ccco2)nc2ccccc21 | inactive: -1.56% |

— PubChem BioAssay AID504692 (The Scripps Research Institute Molecular Screening Center, 2011)
